Experimental data as given in PMC4826920 (Evidence-based Complementary and Alternative Medicine : eCAM, 2016).

Chains of the proteins cited; added tags and fusions are not shown.
UniProt P21397, whole entry: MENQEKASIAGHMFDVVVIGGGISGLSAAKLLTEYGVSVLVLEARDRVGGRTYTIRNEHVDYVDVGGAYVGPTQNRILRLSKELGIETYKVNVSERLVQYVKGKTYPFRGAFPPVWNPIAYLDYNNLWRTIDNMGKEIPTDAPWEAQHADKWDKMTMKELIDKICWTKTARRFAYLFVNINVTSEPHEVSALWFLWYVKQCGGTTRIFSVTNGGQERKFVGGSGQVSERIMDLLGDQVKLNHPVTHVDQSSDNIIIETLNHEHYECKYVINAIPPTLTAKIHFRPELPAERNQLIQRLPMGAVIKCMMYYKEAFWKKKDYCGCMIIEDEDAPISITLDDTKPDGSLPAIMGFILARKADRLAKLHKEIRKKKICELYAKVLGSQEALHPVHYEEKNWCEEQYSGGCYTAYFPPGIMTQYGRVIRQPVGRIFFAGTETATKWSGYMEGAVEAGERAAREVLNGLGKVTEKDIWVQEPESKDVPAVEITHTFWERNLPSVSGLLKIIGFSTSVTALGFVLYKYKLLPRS

Target: T1, hMAO-A (Homo sapiens, UniProt P21397)
T1 construct: purchased Sigma-Aldrich
Experiment: Recovery by dilution assay, hMAO-A
Format: biochemical
Details: 40 min preincubation at 10x IC50, 100-fold dilution; vs negative control
Procedure: The microplates were then incubated for 30, 40, 50, and 60 min. RLDR was added, and luminescence was measured as mentioned above.

C#CCN(C)CCCOc1ccc(Cl)cc1Cl [CLORG, Clorgyline, reference compound]
hMAO-A residual catalytic rate after dilution to 0.1x IC50: 6%
